Data taken from US10815210B2, “Benzocyclobutane derivatives useful as dual SGLT1 / SGLT2 modulators” (Janssen Pharmaceutica NV, priority 2016, dated 2020).

Molecular target: T1, human SGLT2 (Homo sapiens, UniProt P31639)
T1 construct: expressed in transfected cells; host or cells: CHO-K1
T1 sequence (P31639 1-672): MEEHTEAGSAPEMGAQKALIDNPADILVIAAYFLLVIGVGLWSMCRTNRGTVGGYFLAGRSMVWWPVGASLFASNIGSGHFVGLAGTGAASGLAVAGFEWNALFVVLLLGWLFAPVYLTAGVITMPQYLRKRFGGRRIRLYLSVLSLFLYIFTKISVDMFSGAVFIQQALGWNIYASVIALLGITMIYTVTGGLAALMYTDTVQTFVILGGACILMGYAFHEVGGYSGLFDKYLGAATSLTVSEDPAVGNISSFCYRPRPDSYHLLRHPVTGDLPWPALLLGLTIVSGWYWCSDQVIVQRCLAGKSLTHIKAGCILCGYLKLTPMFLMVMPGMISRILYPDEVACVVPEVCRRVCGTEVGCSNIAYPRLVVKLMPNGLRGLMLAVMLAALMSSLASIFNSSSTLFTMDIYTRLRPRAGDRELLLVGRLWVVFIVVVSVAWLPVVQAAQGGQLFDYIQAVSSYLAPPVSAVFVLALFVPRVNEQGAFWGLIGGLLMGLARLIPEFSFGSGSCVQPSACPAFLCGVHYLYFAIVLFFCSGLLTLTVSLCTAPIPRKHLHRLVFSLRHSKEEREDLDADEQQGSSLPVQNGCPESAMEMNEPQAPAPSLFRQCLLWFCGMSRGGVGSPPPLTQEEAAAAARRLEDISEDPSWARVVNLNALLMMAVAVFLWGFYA
Test: SGLT2 assay: Na-dependent 14C-AMG uptake in CHO-K1 cells stably expressing human SGLT2
Type: cell-based
Settings: 500 μM AMG, 2 hours at 37° C.
Protocol: SGLT1 and SGLT2 were cloned in form of cDNA from human small intestine (Genbank M24847), and from human kidney (Genbank M95549), respectively. Subsequently, each full cDNA was subcloned into pcDNA with each construct's integrity verified through follow-on sequencing. To generate CHO-K1 cells that stably express human SGLT1 or human SGLT2, CHO-K1 cells were transfected using DMRIE-C reagent (Life Technologies, Gaithersburg, Md.). Transfected cells were then selected in the presence of 500 μg/ml of the Geneticin (G418 Cellgro Catalog No. 30234-CI)
Individual clones were then characterized using the following cell-based assay for sodium-dependent glucose transport:
Inhibition of SGLT1 and SGLT2 activity was assessed in CHO K1 cells stably expressing either human SGLT1 or SGLT2, using the SGLT specific glucose analog methyl-glucopyranoside (Sigma Catalog No. M-9376). Cells were plated (45,000 cells/well) in white wall 96-well plates (COSTAR, Cat#3903) for 24 hours in growth medium, then a final concentration of 10 mM Na-Butyrate (ALDRICH Cat#30341-0) was added. The cells were incubated for 24 hours. […] The cells were then solubilized by adding 60 μl of MICROSCINT™20 and the Na-dependent ^14C-AMG uptake was quantified by measuring radioactivity. Plates were counted in a TopCount (Packard, Meriden, Conn.)

Row | IC50 [nM] | Structure (SMILES)
1 | 1 | OC[C@H]1O[C@@H](c2cc(Cc3ccc4c(c3)CC4)c(Cl)cc2O)[C@H](O)[C@@H](O)[C@@H]1O [Compound 8, (2S,3R,4R,5S,6R)-2-(5-(bicyclo[4.2.0]octa-1(6),2,4-trien-3-ylmethyl)-4-chloro-2-hydroxyphenyl)-6-(hydroxymethyl)oxane-3,4,5-triol]
2 | 1 | [2H]C([2H])(c1ccc2c(c1)CC2)c1cc([C@@H]2O[C@H](CO)[C@@H](O)[C@H](O)[C@H]2O)c(O)cc1Cl [Compound 55, (2S,3R,4R,S,6R)-2-(5-[bicyclo[4.2.0]octa-1(6),2,4-trien-3-yl(dideuterium)methyl]-4-chloro-2-hydroxyphenyl)-6-(hydroxymethyl)oxane-3,4,5-triol]
